Values quoted from earlier work, collected in article PMC6470885 (Molecules, 2019).

Details: cited from earlier work

Which in vivo half-life does the source give for human serum albumin here?
Its in vivo half-life is 15 to 19 days.
